The chains behind the UniProt entries cited, without tags or fusion partners. Residues count along the entry.
UniProt Q4A0P1, 1-208: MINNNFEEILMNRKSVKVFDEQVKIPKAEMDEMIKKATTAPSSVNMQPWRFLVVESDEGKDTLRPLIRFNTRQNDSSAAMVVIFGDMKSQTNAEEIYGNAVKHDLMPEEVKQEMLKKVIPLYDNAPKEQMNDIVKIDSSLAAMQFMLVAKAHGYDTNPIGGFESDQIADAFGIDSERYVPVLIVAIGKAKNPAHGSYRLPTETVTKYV

In ChEMBL document CHEMBL4393661, “PRODRUGS FOR NITROREDUCTASE BASED CANCER THERAPY- 2: Novel amide/Ntr combinations targeting PC3 cancer cells” (Eur J Med Chem, 2019):

Tests used:
Putative nitroreductase [1] = molecular target: T1, Putative nitroreductase (Staphylococcus saprophyticus subsp. saprophyticus (strain ATCC 15305 / DSM20229 / NCIMB 8711 / NCTC 7292 / S-41), UniProt Q4A0P1); test: Substrate activity at Staphylococcus saprophyticus nitroreductase expressed in Escherichia coli assessed as retention time […] at 111 uM by HPLC analysis (0 to 5 mins at 20 % ACN, 15 to 22 min at 80% ACN, 27-32 AT 20% ACN)
PC-3 [2] = test: Cytotoxicity against human PC3 cells assessed as cell viability at 9 to 150 uM measured after 48 hrs by MTT assay relative to control; assay type: cell-based; conditions: pc-3, 48 h
Putative nitroreductase [3] = molecular target: T1, Putative nitroreductase; test: Substrate activity at Staphylococcus saprophyticus nitroreductase expressed in Escherichia coli assessed as half life in the presence of NADPH at 111 uM by HPLC analysis (0 to 5 mins at 20 % ACN, 15 to 22 min at 80% ACN, 27-32 AT 20% ACN)
Hep 3B2 [4] = test: Cytotoxicity against human Hep3B cells assessed as reduction in cell viability measured after 48 hrs by MTT assay; assay type: cell-based
HUVEC = test: Cytotoxicity against human HUVEC cells assessed as cell viability at 9 to 150 uM measured after 48 hrs by MTT assay relative to control; assay type: cell-based
Hep 3B2 [5] = test: Cytotoxicity against human Hep3B cells assessed as cell viability at 9 to 150 uM measured after 48 hrs by MTT assay relative to control; assay type: cell-based; conditions: hep 3b2, 48 h
Putative nitroreductase [6] = molecular target: T1, Putative nitroreductase; test: Substrate activity at Staphylococcus saprophyticus nitroreductase expressed in Escherichia coli assessed as half life […] at 100 uM by HPLC analysis (0 to 5 mins at 20 % ACN, 15 to 22 min at 80% ACN, 27-32 AT 20% ACN)
PC-3 [7] = test: Cytotoxicity against human PC3 cells assessed as reduction in cell viability measured after 48 hrs in presence of Staphylococcus saprophyticus nitroreductase and NADH by SRB assay; assay type: cell-based
PC-3 [8] = test: Cytotoxicity in human PC3 cells assessed as reduction in cell viability at 180 nM measured after 48 hrs by SRB assay; assay type: cell-based; conditions: pc-3, 48 h, 0.18 µM
Putative nitroreductase [9] = molecular target: T1, Putative nitroreductase; test: Substrate activity at Staphylococcus saprophyticus nitroreductase expressed in Escherichia coli assessed as retention time […] at 100 uM by HPLC analysis (0 to 5 mins at 20 % ACN, 15 to 22 min at 80% ACN, 27-32 AT 20% ACN)
Putative nitroreductase [10] = molecular target: T1, Putative nitroreductase; test: Substrate activity at Staphylococcus saprophyticus nitroreductase expressed in Escherichia coli assessed as half life […] at 100 uM by HPLC analysis (0 to 5 mins at 20% ACN, 25 to 35 min at 80% ACN, 40 to 45 min at 20% ACN)
Putative nitroreductase [11] = molecular target: T1, Putative nitroreductase; test: Substrate activity at Staphylococcus saprophyticus nitroreductase expressed in Escherichia coli assessed as retention time in the presence of NADPH at 100 uM by HPLC analysis (0 to 5 mins at 20% ACN, 25 to 35 min at 80% ACN, 40 to 45 min at 20% ACN)
Putative nitroreductase [12] = molecular target: T1, Putative nitroreductase; test: Substrate activity at Staphylococcus saprophyticus nitroreductase expressed in Escherichia coli assessed as half life in the presence of NADPH at 111 uM by HPLC analysis (0 to 5 mins at 20% ACN, 25 to 35 min at 80% ACN, 40 to 45 min at 20% ACN)
Putative nitroreductase [13] = molecular target: T1, Putative nitroreductase; test: Substrate activity at Staphylococcus saprophyticus nitroreductase expressed in Escherichia coli assessed as retention time in the presence of NADPH at 111 uM by HPLC analysis (0 to 5 mins at 20% ACN, 25 to 35 min at 80% ACN, 40 to 45 min at 20% ACN)

SMILES: O=C(Nc1ccc([N+](=O)[O-])cc1[N+](=O)[O-])c1cc([N+](=O)[O-])cc([N+](=O)[O-])c1
- Retention time (Putative nitroreductase [1]): 14.5 min
- Activity (PC-3 [2]): > 80%
- t1/2 (Putative nitroreductase [3]): < 22.2 min
- IC50 (Hep 3B2 [4]): 51.2 µM
- Activity (HUVEC): 51 to 80%
- Activity (Hep 3B2 [5]): < 50%

SMILES: Cc1c([N+](=O)[O-])cc(C(=O)Nc2ccc([N+](=O)[O-])cc2)cc1[N+](=O)[O-]
- t1/2 (Putative nitroreductase [6]): < 22.8 min
- Activity (PC-3 [2]): > 80%
- IC50 (PC-3 [7]): 17.1 µM
- Activity (PC-3 [8]): Non-Toxic
- Activity (HUVEC): > 80%
- Retention time (Putative nitroreductase [9]): 18 min
- t1/2 (Putative nitroreductase [10]): < 15.6 min
- Activity (Hep 3B2 [5]): > 80%
- Retention time (Putative nitroreductase [11]): 23.9 min

SMILES: CN(C)c1c([N+](=O)[O-])cc(C(=O)Nc2ccc([N+](=O)[O-])cc2)cc1[N+](=O)[O-]
- t1/2 (Putative nitroreductase [6]): < 18 min
- Activity (PC-3 [2]): > 80%
- IC50 (PC-3 [7]): 29.1 µM
- Activity (PC-3 [8]): Non-Toxic
- Activity (HUVEC): > 80%
- Retention time (Putative nitroreductase [9]): 18.4 min
- Activity (Hep 3B2 [5]): > 80%

SMILES: CN(C)c1c([N+](=O)[O-])cc(C(=O)Nc2ccc([N+](=O)[O-])cc2[N+](=O)[O-])cc1[N+](=O)[O-]
- t1/2 (Putative nitroreductase [6]): < 25.2 min
- Activity (PC-3 [2]): > 80%
- IC50 (Hep 3B2 [4]): 43.7 µM
- Activity (HUVEC): > 80%
- Retention time (Putative nitroreductase [9]): 18.5 min
- t1/2 (Putative nitroreductase [10]): < 6 min
- Activity (Hep 3B2 [5]): < 50%
- Retention time (Putative nitroreductase [11]): 24.9 min

SMILES: Cc1c([N+](=O)[O-])cc(C(=O)Nc2ccc([N+](=O)[O-])cc2[N+](=O)[O-])cc1[N+](=O)[O-]
- Retention time (Putative nitroreductase [1]): 18.1 min
- t1/2 (Putative nitroreductase [12]): < 10.8 min
- Activity (PC-3 [2]): > 80%
- t1/2 (Putative nitroreductase [3]): < 13.8 min
- Activity (HUVEC): > 80%
- Retention time (Putative nitroreductase [13]): 24.1 min
- Activity (Hep 3B2 [5]): 51 to 80%
